pIC50: −log10 of the molar value.
Target: Voltage-gated inwardly rectifying potassium channel KCNH2 (Homo sapiens, UniProt Q12809)
Test: Displacement of [3H]astemizole from human ERG K+ channel expressed in HEK293 cells by scintillation spectrophotometric analysis

The chains behind the UniProt entries cited, without tags or fusion partners. Where a name states a change or a piece, a line headed by the entry shows the natural chain unless it says otherwise.
UniProt Q12809: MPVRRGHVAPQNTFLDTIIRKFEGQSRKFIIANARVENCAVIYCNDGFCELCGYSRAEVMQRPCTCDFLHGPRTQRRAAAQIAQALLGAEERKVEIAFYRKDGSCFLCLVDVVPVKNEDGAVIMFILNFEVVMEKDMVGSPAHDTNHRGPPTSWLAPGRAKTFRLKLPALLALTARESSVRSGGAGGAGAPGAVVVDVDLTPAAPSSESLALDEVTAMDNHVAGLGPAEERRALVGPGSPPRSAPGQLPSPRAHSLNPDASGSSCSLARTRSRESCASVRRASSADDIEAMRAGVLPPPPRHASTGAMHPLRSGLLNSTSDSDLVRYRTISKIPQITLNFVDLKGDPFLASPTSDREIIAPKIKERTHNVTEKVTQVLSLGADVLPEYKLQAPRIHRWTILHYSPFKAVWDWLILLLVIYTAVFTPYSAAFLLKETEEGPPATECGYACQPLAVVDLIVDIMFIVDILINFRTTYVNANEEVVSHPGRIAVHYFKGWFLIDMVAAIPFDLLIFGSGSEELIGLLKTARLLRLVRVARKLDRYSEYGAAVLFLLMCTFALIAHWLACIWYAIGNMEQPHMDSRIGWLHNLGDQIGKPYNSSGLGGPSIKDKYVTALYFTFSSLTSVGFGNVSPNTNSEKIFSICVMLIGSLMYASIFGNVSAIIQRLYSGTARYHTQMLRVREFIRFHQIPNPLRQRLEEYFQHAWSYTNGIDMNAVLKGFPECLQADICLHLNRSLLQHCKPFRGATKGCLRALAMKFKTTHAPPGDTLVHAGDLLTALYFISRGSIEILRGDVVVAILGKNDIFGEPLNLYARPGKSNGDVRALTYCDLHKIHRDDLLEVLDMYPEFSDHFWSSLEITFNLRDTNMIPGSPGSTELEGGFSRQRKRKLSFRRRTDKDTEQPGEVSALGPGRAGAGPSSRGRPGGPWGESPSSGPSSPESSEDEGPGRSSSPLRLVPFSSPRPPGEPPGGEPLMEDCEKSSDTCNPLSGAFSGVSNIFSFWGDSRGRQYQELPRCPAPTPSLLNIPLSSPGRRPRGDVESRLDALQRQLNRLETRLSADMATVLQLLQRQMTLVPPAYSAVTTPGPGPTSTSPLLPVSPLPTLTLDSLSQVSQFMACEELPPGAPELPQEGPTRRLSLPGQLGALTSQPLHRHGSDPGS

Row | Compound | pIC50
1 | COc1ccc(OCCCc2cccc(CCCOc3ccc(OC)cc3)[n+]2C)cc1 | 6.80
2 | c1ccc(OCc2cccc(COc3ccccc3)n2)cc1 | 7.13
3 | Cc1ccc(Cc2cccc(COc3ccc(C)cc3)n2)cc1 | < 8.00
4 | Cc1ccc(Cc2cc[n+](C)c(COc3ccc(C)cc3)c2)cc1 | 6.46
5 | Cc1ccc(OCc2cccc(COc3ccc(C)cc3)[n+]2C)cc1 | 7.28
6 | Cc1ccc(CCc2cccc(CCc3ccc(C)cc3)[n+]2C)cc1 | 7.62
7 | CCCCCCCCc1cccc(CCCCCCCC)[n+]1C | 7.82
